From patent US20110288485A1, “MICRONEEDLE DEVICE” (HISAMITSU PHARMACEUTICAL CO., INC., priority 2008, published 2011)

Key:
[1] = Amount of FSH coated on microneedles (Example 1); type: physicochemical; settings: coating liquid 30% follicle-stimulating hormone, 15% pullulan
Protocol: A liquid obtained by adding 26.4 μL of [^125I]FSHaq concentrated 10-fold with Biomax (molecular weight fraction: 10,000), 14.4 mg of Cold FSH (the product of ProSpec-TechnoGene Ltd), and 7.2 mg of pullulan into an Eppendorf tube and dissolving the content by centrifugation was provided as a coating liquid (30% follicle-stimulating hormone, 15% pullulan). The coating liquid thus obtained (30% follicle-stimulating hormone, 15% pullulan) was coated on the microneedle device by the aforementioned coating method (metal mask standard: one side of an aperture 220 μm, thickness 100 μm, and humidity at room temperature 85% RH or more). Subsequently, after piercing excised human skin with the microneedle device thus coated by finger pressing (2 kg/patch), the device and the skin were placed on an acrylic cell for sampling over time. As a receptor layer, phosphate buffered saline (PBS) was used, and after mixing and stirring 1 mL of a receptor liquid obtained per sampling time and acetonitrile at 1:1 and centrifuging this mixture (15,000 rpm, 5° C., 5 min), a supernatant was collected and an FSH concentration was measured by a γ-counter as described below. […]
An amount of coating was calculated by using a microneedle device to which 1 to 5 μL of 10 times concentrated [^125I]FSHaq was added dropwise as a calibration curve by a γ-counter and a NaI counter. […]

[2] = Hairless rat in vivo absorption test by microneedles (follicle-stimulating hormone)
Protocol: Using a total of four types of microneedles, namely microneedles made of a polylactic acid having a density of 841 needles/cm^2 and a length of the needle part of 300 μm and three types of microneedles made of a polylactic acid that has a density of 400 needles/cm^2 in common but differ in the length of the needle part (h: 300 μm, 400 μm, and 500 μm), a hairless rat in vivo absorption test was conducted. The shape of any of these four types of microneedles is square pyramid, and the area of each microneedle device was 1 cm^2.
Firstly, the abdomen of a hairless rat was pierced with a microneedle device in which tips of the needles were coated with a similar coating liquid to Example 1 (30% FSH, 15% pullulan) by a similar technique to Example 1 by hand pushing. Then, plasma was collected over time (amount of blood collected: 300 μL/time) to measure the FSH concentration with a SPAC-S FSH kit (the product of TFB, Inc.) Also, in a subcutaneous administration group, 300 μL of 1 IU/mL FSH (physiological saline solution) was subcutaneously administered to the back of a hairless rat and the FSH concentration was similarly measured. It is to be noted that the time of attachment of the microneedle device was set at two hours.

follicle-stimulating hormone [FSH]
amount of FSH coated on the microneedles [1]: approximately 30 μg | effect of microneedle density on amount of FSH administered ([2]; length 300 μm, 841 vs 400 needles/cm^2): did not cause changes in the amount of FSH administered very much | initial rise in the blood FSH concentration ([2]; microneedle device vs subcutaneous administration): faster than subcutaneous administration | efficiency of FSH administration by length of the microneedle (plasma FSH) ([2]; microneedle length 300, 400, 500 μm, 400 needles/cm^2, attachment two hours): 300 μm<400 μm<500 μm
